Assay results published in patent US20110195433A1 (priority 2007, published 2011).

By UniProt entry, the sequences of proteins in these tests, tags left out. Where a name states a change or a piece, a line headed by the entry shows the natural chain unless it says otherwise.
UniProt P35372: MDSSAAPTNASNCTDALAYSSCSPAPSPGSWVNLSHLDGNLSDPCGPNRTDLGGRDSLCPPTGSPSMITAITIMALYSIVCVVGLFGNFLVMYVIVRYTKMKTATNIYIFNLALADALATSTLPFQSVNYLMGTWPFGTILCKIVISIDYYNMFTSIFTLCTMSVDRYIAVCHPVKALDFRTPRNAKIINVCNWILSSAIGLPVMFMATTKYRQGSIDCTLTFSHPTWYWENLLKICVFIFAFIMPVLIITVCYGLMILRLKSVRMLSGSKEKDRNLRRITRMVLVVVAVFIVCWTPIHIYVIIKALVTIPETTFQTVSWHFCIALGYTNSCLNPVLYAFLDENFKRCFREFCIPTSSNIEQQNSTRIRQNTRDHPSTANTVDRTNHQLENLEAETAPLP
UniProt P32300: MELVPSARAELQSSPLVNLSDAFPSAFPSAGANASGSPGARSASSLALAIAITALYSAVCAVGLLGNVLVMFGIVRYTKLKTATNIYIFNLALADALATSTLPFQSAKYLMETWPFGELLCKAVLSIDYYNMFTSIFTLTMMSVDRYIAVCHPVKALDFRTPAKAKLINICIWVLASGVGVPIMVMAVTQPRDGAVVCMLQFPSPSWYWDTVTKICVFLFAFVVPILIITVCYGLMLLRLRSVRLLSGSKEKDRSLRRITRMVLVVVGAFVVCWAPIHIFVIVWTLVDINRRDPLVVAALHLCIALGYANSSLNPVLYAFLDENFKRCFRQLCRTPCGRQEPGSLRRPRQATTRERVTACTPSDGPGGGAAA
UniProt P41145: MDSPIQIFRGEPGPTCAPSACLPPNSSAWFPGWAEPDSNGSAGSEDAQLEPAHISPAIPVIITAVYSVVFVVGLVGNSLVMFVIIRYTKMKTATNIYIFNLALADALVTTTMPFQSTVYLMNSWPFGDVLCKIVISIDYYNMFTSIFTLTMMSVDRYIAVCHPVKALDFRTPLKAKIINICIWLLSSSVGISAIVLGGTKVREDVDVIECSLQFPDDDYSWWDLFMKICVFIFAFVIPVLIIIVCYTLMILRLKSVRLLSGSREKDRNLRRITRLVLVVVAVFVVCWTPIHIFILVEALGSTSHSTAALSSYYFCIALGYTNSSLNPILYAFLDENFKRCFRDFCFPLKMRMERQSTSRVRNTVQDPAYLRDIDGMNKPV

Experiments:
human MOR [1] = molecular target: T1, human MOR (Homo sapiens, UniProt P35372); experiment: [[…] binding (saturation and competitive) in MOR membranes
mouse DOR [2] = molecular target: T2, mouse DOR (Mus musculus, UniProt P32300); experiment: [[…] binding (saturation and competitive) in DOR membranes
human KOR [3] = molecular target: T3, human KOR (Homo sapiens, UniProt P41145); experiment: [[…] binding (saturation and competitive) in KOR membranes
mouse DOR [4] = molecular target: T2, mouse DOR; experiment: basal [35S]GTPγS binding in DOR cell membranes with or without agonist pretreatment; type: biochemical; details: DPDPE-pretreated DOR membranes
human MOR [5] = molecular target: T1, human MOR; details: for effect on basal [35S]GTPγS binding: DAMGO- or morphine-pretreated MOR membranes
human KOR [6] = molecular target: T3, human KOR
[7] = system: opioid pretreated animals; experiment: diarrhea in opioid pretreated animals
human MOR [8] = molecular target: T1, human MOR; experiment: agonist-stimulated [35S]GTPγS binding in MOR membranes; details: 1 μM DAMGO
mouse DOR [9] = molecular target: T2, mouse DOR; experiment: agonist-stimulated [35S]GTPγS binding in DOR membranes; details: 30 nM DPDPE
human KOR [10] = molecular target: T3, human KOR; experiment: agonist-stimulated [35S]GTPγS binding in KOR membranes; details: 300 nM U50,488H
[11] = morphine-pretreated KOR membranes

6β-naltrexamide
binding affinity, fold higher (more potent) than naloxone (human MOR [1]): 3 fold | binding affinity, fold less potent than naltrexone (human MOR [1]): 4 fold | binding affinity, fold less potent than naloxone (mouse DOR [2]): 7- to 10 fold | binding affinity, fold less potent than naloxone (human KOR [3]): 2- to 7 fold | inhibition of the inverse agonist effect of naloxone (mouse DOR [4]): inhibited | inhibition of the inverse agonist effect of naloxone (human MOR [5]; DAMGO (agonist)-pretreated MOR membranes): inhibited | effect on basal [35S]GTPγS binding (human MOR [5]): did not decrease | effect on basal [35S]GTPγS binding (human MOR [5]; listed as 6β-nalrexamide): no inverse agonist effects | pharmacological property at KOR (human KOR [6]; U69593 pretreated membranes): remains neutral | inhibition of the inverse agonist effect of 6β-naltrexol (human KOR [6]; U-69593-pretreated KOR membranes): inhibited | pharmacological property at KOR (human KOR [6]; after agonist pretreatment): remained neutral regardless of agonist pretreatment | effect on basal [35S]GTPγS binding (human KOR [6]; [11]): no inverse agonist effects | inhibition of the inverse agonist effect of naloxone (human KOR [6]; [11]): inhibited | diarrhea [7]: less diarrhea | antagonistic property against agonist-stimulated [35S]GTPγS binding (human MOR [8]): full antagonists | antagonistic property against agonist-stimulated [35S]GTPγS binding (mouse DOR [9]): full antagonists | antagonistic property against agonist-stimulated [35S]GTPγS binding (human KOR [10]): full antagonists

Where two headings read alike, the source gives them in different places.
